For this series, the system named is A2780. Put plainly: Inhibition of cell growth, A2780 wild type ovarian carcinoma cell line. The conditions noted are these: text b286; for IC50: read-out: IC50 of di-N-oxides (order of cytotoxicity).

One may read the IC50 as the concentration that gives 50% inhibition. Regarding “1-{[2-(3-Chloropiperidin-1-yl-N-oxide)ethyl]amino}-4-{[(2-dimethylamino-N-oxide)ethyl]amino}-5,8-dihydroxyanthracene-9,10-dione [CAQ167MN]”, the half-maximal inhibitory concentration (IC50) came out at 36 µM and the “cytotoxicity ratio (CR=IC50 of alkylaminoanthraquinone-di-N-oxide/IC50 alkylaminoanthraquinone)” value (“cytotoxicity ratio” for short) came to 4167.

With “1-{[2-(4-Chloropiperidin-1-yle-N-oxide)ethyl]amino}-4-{[(2-dimethylamino-N-oxide)ethyl]amino}-5,8-dihydroxyanthracene-9,10-dione [CAQ179N]”, the IC50 was found to be 46 µM and the “cytotoxicity ratio” value was 80.

As for “1,4-Bis-{[2-(2-chloromethylpiperidin-1-yl-N-oxide)ethyl]amino}-5,8-dihydroxyanthracene-9,10-dione [CAQ192MN]”, the half-maximal inhibitory concentration (IC50) was 8 µM and the “cytotoxicity ratio” value was 44.

Regarding “1-{[2-(2-Chloromethylpyrrolidin-1-yl-N-oxide)ethyl]amino}-4-{[(2-dimethylamino-N-oxide)ethyl]amino}-5,8-dihydroxyanthracene-9,10-dione [CAQ181MN]”, the concentration for half-maximal inhibition (IC50) amounted to 38 µM and the “cytotoxicity ratio” value came to 1293.

For the origin of these results see patent US7557215B2, “Anthraquinone compounds as anti cancer compounds” (Somanta Limited, priority 2003, dated 2009).
